# In publication PMC5554167, “Intestinal transepithelial permeability of oxytocin into the blood is dependent on the receptor for advanced glycation end products in mice” (Scientific Reports, 2017):
# Where two headings read alike, the source gives them in different places. Marks after values point to notes of the source that are not given here.
# Settings: 4-kDa FITC-dextran injected into mucosal side of isolated intestine, (fluorescence 3 min minus 0 min)/3 min, ex 485/em 538 nm, room temperature, mean ± SEM, N = 3
substance,measurement,setting,value
fluorescein isothiocyanate (FITC)-dextran [FITC-dextran],Permeability,Ager-/- (RAGE KO) pups PND1,13.4 ± 0.4^b units/min
same,Permeability,Ager-/- (RAGE KO) pups PND6,16.9 ± 0.3^d units/min
same,Permeability,wild-type pups PND1,13.0 ± 0.9^a units/min
same,Permeability,wild-type pups PND6,17.1 ± 0.3^c units/min
